Measurements taken from patent publication EP4117701B1, “COMPOSITIONS FOR THE PREVENTION AND/OR TREATMENT OF BENIGN PROSTATIC HYPERTROPHY (BPH)” (IDI Integratori Dietetici Italiani S.r.l., priority 2020, dated 2021).

Test system: IL-1β
Details: LNCaP, conditioned THP-1 medium; concentrations of Table 2

O=C(O)Cc1ccccc1Nc1c(Cl)cccc1Cl [Diclofenac]
reduction of IL-1β release (in words): maximum reduction
